System: anti-morphine-heroin serum antibodies
Experiment: competitive immunoenzymatic ELISA for antibody specificity
Assay type: binding, rat
Details: competitive antigen, nM-μM range

Chains of the proteins cited; added tags and fusions are not shown. Lines headed by an entry give the natural chain unless they say otherwise; changes in a name come on top.
UniProt P01210: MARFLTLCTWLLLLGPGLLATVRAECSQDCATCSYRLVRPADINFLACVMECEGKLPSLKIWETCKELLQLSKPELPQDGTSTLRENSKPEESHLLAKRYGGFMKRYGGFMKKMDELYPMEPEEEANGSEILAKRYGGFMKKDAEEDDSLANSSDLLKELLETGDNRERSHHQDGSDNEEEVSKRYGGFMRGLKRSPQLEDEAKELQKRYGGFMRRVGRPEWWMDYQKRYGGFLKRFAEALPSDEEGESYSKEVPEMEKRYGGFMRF

leucine-enkephalin (YGGFL; Leu-enkephalin; UniProt P01210 230-234, looked up) [endogenous opioid peptide produced in the CNS of mammals]
cross-recognition by anti-morphine-heroin serum antibodies: not able to cross-recognize

Reference: patent US8357375B2, “Process for the preparation and use of a bivalent vaccine against morphine-heroine addiction” (Instituto Nacional de Psiquiatria Ramon de la Fuente Muniz, priority 2004, dated 2013)
